Activity calls are given as the source filed them. The rule behind the calls is not given here.
Assays:
Mus musculus [1] = assay: Protection against imiquimod-induced psoriasis model of BALB/c mouse assessed as reduction in total psoriasis area at 10 to 20 mg/kg, po administered for 13 days; assay type: functional, organism-based; conditions: dose 10-20 mg/kg, time 13.0 day
Mus musculus [2] = assay: Protection against imiquimod-induced psoriasis model of BALB/c mouse assessed as reduction on histopathological change at 10 to 20 mg/kg, po administered for 13 days by H and E staining based analysis; assay type: functional, organism-based; conditions: dose 10-20 mg/kg, time 13.0 day

For Cc1nc(N2CCOCC2)ccc1N(CC(C)C)S(=O)(=O)c1ccc2c(c1)C(=O)CC(C1CCOCC1)O2 (configuration not stated), the Activity (Mus musculus [1]) was “Active” and the Activity (Mus musculus [2]) was “Active”.

— ChEMBL document CHEMBL5042513, “Discovery of 2H-chromone-4-one based sulfonamide derivatives as potent retinoic acid receptor-related orphan receptor γt inverse agonists” (Eur J Med Chem, 2022)
